Binding of CDR-mutated scFvs to a peptide of the spike HR2 region

All variants were tested on one target, the spike HR2 peptide PDVDLGDISGINAS (SARS-CoV-2).

Parent: Ab-14, a human scFv built as VH, a 15-residue (Gly4Ser)3 linker, VL. Only the CDRs of the heavy chain vary.
VH: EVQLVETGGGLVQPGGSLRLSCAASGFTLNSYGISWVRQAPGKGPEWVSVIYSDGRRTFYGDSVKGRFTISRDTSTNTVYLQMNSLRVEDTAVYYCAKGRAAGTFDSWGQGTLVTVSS
VL: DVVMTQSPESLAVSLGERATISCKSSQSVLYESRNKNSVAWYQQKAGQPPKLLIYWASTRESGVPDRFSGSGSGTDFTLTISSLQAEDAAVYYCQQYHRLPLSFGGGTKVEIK

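Phage display of a naive human antibody library on the peptide gave the parent. This is the validation round: designs drawn from the data on random variants, tested in the same kind of assay. Several design methods are mixed in this list. The assay is AlphaSeq: two haploid yeast populations carry antibody and antigen on their surface. The frequency of each diploid, read from paired DNA barcodes, reflects how well the two displayed proteins bind. Read counts were normalised to the haploid input and turned into Kd by a linear fit to BCL2-family pairs of known affinity, for each replicate. The assay was run in six technical replicates.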

The parent's heavy chain CDRs are GFTLNSYGIS, VIYSDGRRTFYGDSVK, GRAAGTFDS; each variant's own CDRs replace them letter for letter.
Variants here have at most six changes.
Affinities are written as log10 Kd with Kd in nM; a lower number is a better binder.
A mean of the replicates is given; it leaves out those without a signal.
Where no diploid with the target was found in any replicate, the entry reads "nd": below detection, most likely a poor binder, though not proof of it.

CDR-H1,CDR-H2,CDR-H3,"mean, log10 nM",detected,signal with controls
GFELNMYGIS,VIYSDGRRTFYDDSVK,GKAAGTFDS,0.23,6/6,0/18
GFSLNSYGIS,VIYSDGRRTFYSDSVK,GRAAGTFDT,-0.13,6/6,0/18
GFTLNSYGIS,VIYSDGRRTFYIDSVK,GKQAGTFDS,1.30,6/6,1/18
GFSLNDYGIS,VIYSDGRRTFYIDTVK,GNAAGTFDS,0.24,6/6,0/18
GFRLNSYGIS,VIYADGRRTFYGDSVK,GRAAGTNKS,nd,0/6,0/18
GFTLNDYGIS,VIYSWGRRTFYGDSVK,GRAALTFIS,nd,0/6,0/18
GEDLNSYGIS,VIYSDGRRTFYGDSVK,GRNAGTFDS,0.54,6/6,0/18
GFTLNSYGIS,VIYSDGRRTFYGDSYK,GRAADTFDS,1.91,1/6,0/18
GFGLNDYGIS,VIYSDGRRTFYGDSVK,GRQAGTFDS,0.61,6/6,3/18
GFTLNDYGIS,VIYSDGRRTQYIDSVK,GRAAGTFDF,2.27,4/6,0/18
GFTLNSYGIS,VIYSDGRRTFYGDSVK,GRHAGTFVS,nd,0/6,1/18
GFDVNSYGIS,VIYSDGRRTAYSDSVK,GRAAGTFDS,1.07,6/6,0/18
GFTLNQYGIS,VIYSDGRRTFYGPSVK,GKAAGTFDS,1.88,5/6,0/18
GFDLNSYGIS,VIYSDGRRTFYADSVK,GQAAGTFDN,0.66,6/6,1/18
GFTLNSYGIS,VIYSDGRRTFYADSFK,GRAAGTFDS,2.34,1/6,0/18
GFTLNEYGIS,VIYSDGRRTFYADSVK,GRQAGTFDS,0.18,6/6,0/18
GFGLNSYGIS,VIYFDGRRVFYGDNVK,GRAAGTFDS,nd,0/6,0/18
GVTLNSYGIS,VIYSDGMRTFYGDSYK,GRAAGTFDS,nd,0/6,0/18
GFTLNSYGIS,VIYSDGRRTFYGDSVK,GRQAGTFDS,1.49,6/6,0/18
GFTLNSYGIS,VIYADGRRSFYGDSVK,GEAAGTFKS,0.74,5/6,0/18
GFTLNDYGIS,VIYSDGRRTFYGDDVK,GRAAGTFDS,0.24,6/6,0/18
GFTINSYGIS,VIYSDGRRTFYGDKVK,GREAGTFDE,1.31,3/6,0/18
GFTLKEYGIS,VIYSDGRRTFYGDSVK,GRAAVTFDV,nd,0/6,0/18
GFTLESYGIS,VIYSDGRRTFYADDVK,GRTAGTFDS,0.00,6/6,0/18
GFTPNSYGIS,VIYSDGRRTFYGDSVK,GKHAGTFDS,nd,0/6,1/18
GFSLNEYGIS,VIYSDGRRTFYGDSVK,GKAAGTFDV,-0.10,6/6,0/18
GFTLNSYGIS,VIYSDGRRTFYGDSVK,GQVAGTFDL,1.42,6/6,1/18
GFTLNSYGIS,VIYSDGVRVFYGDSVK,GRAAGTFDS,nd,0/6,0/18
GFDLNSYGIS,VIYADGRRTFYGDSVK,GRAAGTNYS,nd,0/6,0/18
GFTLNEYGIS,VIYSDGRRTFYCDSVK,GRLAGTFDT,1.26,6/6,0/18
GFDLEEYGIS,VIYADGRRTFYADSVK,GEAAGTFDS,-0.40,6/6,0/18
GFTLNSYGIS,VIYADGRRTFYGDSVK,GQAAGTFDN,0.53,6/6,0/18
GFTLNEFGIC,VIYSDGRRTAYTDSVK,GRFAGTFDS,nd,0/6,0/18
GFALNSYGIS,VIYADGRRTFYGDSVK,GQAAGTFDS,0.00,6/6,0/18
GFSLNSYGIS,VIYSDGRRTFYADHVK,GRTAGTFDS,0.64,6/6,0/18
GFTLNSYGIS,VIYSDGRRTFYGDSVR,GWAAGYADP,nd,0/6,0/18
GFWLNEYGIS,VIYSDGRRTFYGDSVK,GKTAGTFDL,0.46,5/6,0/18
GFSLNDYGIS,VIYSDGRRTFYGDSVK,GQAAGTFDS,0.04,6/6,0/18
GFTLNSYGIS,VIYSDGRRTFYGNSVK,GRAAATFDS,nd,0/6,0/18
GFALNSYSIS,VIYSDGQRTFYGDSVK,GYCAGTFDS,nd,0/6,0/18
GFTLNDYGIS,VIYSDGRRPQYIDSVK,KRAAGTFDS,2.30,1/6,0/18
GFTLNSYGIS,VIYSDGRRTFYGDSVK,GRAKGTFDS,nd,0/6,0/18
GFTLQSYGIS,VIYSDGRRTFYGDSVK,GRAAGNFDS,nd,0/6,0/18
GFNLGSYGIS,VIYSDGRRTAYGDNVK,GRAAGTFDT,1.22,6/6,1/18
GFTLKSYGIS,VIYSDGRRTFYYDSVK,GRAAGTFES,nd,0/6,0/18
GFSLNSYGIS,VIYADGRRTFYGDSVK,GKAAGTFDL,-0.06,6/6,0/18
GFTLNSYGIS,VIYSDGRRTFYGDSVK,GGAVGTFDS,nd,0/6,0/18
GFDLNSYGIS,VIYSDGRRTFYVDSVK,GKAAGTFDS,0.42,6/6,1/18
GFWLNEYGIS,VIYSDGRRTFYADSVK,GRAAGTFDE,1.32,3/6,0/18
GFWLNEYGIS,VIYSDGRRTFYGDSVK,GRAAVTFDQ,nd,0/6,0/18
GFSLNEYGIS,VIYSDGRRTFYSDSVK,GRHAGTFDS,0.81,6/6,0/18

The authors' rule: three or more of the six replicates give a measured affinity, fewer mean a poor binder.
Values of this round are not directly comparable with the first-round values of the same sequences.
Of ten entries with the parent sequence, four were seen in most replicates (averages 0.34 to 2.37), three in one and three in none, so single entries are noisy.
Empty control strains, which show no peptide, gave a signal in 1% of pairings with all heavy chain designs; the median was 2.08 and 95% of these signals were weaker than 0.84. No background was subtracted. The control count says in how many pairings with the empty strains this scFv gave a signal.

Reference: Li et al. 2023, doi:10.1038/s41467-023-39022-2. File: FLAb, binding data.